The text below walks through data of ChEMBL document CHEMBL5058645, “Data for DCP probe JNJ-6204” (2022).

By UniProt entry, the sequences of proteins in these tests, tags left out. Where a name states a change or a piece, a line headed by the entry shows the natural chain unless it says otherwise.
UniProt P48730: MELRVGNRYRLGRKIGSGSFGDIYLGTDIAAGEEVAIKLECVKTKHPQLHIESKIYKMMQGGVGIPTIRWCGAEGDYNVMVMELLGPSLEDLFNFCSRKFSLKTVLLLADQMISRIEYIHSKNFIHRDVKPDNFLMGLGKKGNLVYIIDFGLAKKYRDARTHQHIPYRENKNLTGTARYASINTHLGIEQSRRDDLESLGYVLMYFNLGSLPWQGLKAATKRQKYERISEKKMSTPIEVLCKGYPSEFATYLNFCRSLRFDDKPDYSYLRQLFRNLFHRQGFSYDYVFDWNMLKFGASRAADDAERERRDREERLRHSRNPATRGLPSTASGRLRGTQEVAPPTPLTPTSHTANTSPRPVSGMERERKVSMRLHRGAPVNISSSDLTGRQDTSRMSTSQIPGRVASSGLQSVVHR

Each structure is given as a SMILES string. Activity calls are given as the source filed them. No cut-off for these calls is given here.

Test [1] deals with T1, Casein kinase I isoform delta (Homo sapiens, UniProt P48730). As to the kind of experiment: BRET whole cell binding assay. (In BRET a luciferase serves as donor, and the signal depends on an acceptor being close.)
The target of test [2] is T1, Casein kinase I isoform delta.

As a reminder, the IC50 is the concentration that inhibits the measured activity by half. On to `[2H]C([2H])([2H])C1(C([2H])([2H])[2H])Cn2nc(-c3ccc(F)cn3)c(-c3ccnc4[nH]ncc34)c2CO1`, for which the half-maximal inhibitory concentration (IC50) is active: 72 nM in test [1] and active: 542 nM in test [2].
